miR-21 FLuc = raises the signal of a miR-21 reporter; HeLa miR-21 FLuc reporter, luciferase, 48 h; Potency, µM (top dose mostly 38.3 µM), for inactives: at the highest dose reporter change, positive = more light; AID 2288; 340,000 tested, under 10 active; active = well fitted rising curve with a large enough effect; inconclusive = small, poorly fitted or top-dose-only effect; inactive = no such curve, though single readings can be large or run the other way;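 note: % of control where 0% means no effect; miR-21 action dims this reporter so a rising signal means less miR-21 action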
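Luminescence from a firefly luciferase reporter carrying a miR-21 binding site downstream, stably expressed under a CMV promoter in HeLa cells that make miR-21 endogenously, reports miRNA modulation after 48 h compound exposure up to approximately 40uM final.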
ALDH1A1 block = ALDH1A1 (human) enzyme inhibition | P00352 | Purified ALDH1A1, NADH fluorescence, propionaldehyde substrate | Potency, µM (doses to about 75.3 µM), for inactives: top-dose activity, negative = inhibition, actives largely listed as inhibitors | 220,000 tested, 7.3% active; active means well fitted inhibition curve with a large enough effect, not every such curve was filed as active; inconclusive means small, poorly fitted or top-dose-only effect, or another doubt; inactive means no such curve, though single readings can be large or run the other way;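 further: potency means the concentration at half of the fitted maximal effect; plate controls were no enzyme wells and a reference inhibitor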
JMJD2E inh = inhibitors of human JMJD2E histone demethylase | B2RXH2 | JMJD2E catalytic domain, FDH-coupled NADH fluorescence (FDH is formaldehyde dehydrogenase) | Potency, µM (titrated, usually from 57.1 µM), for inactives: at the top dose activity change, negative = inhibition, most hits filed as inhibitors | 230,000 tested, 1.6% active | AID 2147; active means well fitted inhibition curve with a large enough effect, not every such curve was filed as active; inconclusive means small, poorly fitted or top-dose-only effect, or another doubt; inactive means no such curve, though single readings can be large or run the other way;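 further: potency means the concentration at half of the fitted maximal effect; 0% = wells with enzyme and -100% = buffer wells without enzyme; nearly all actives have a fitted effect of over 50% in size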
LMNA splice mod = LMNA splicing modulation | Potency, µM (series often up to 46.1 µM), inactives show at the highest dose ratio change, negative = inhibition, usual class: inhibitors | HeLa LMNA splicing GFP/RFP minigene ratio, 48 h | 200,000 tested, 0.01% active; active means well fitted inhibition curve with a large enough effect in the signal ratio, with a control signal flat, not every such curve was filed as active; inconclusive means small, poorly fitted or top-dose-only effect, or effect the other way, or a change in a side signal; the % refers to the signal ratio; further: potency means the concentration at half of the fitted maximal effect; on the % scale 0 is the no-effect control and ±100 the full control effect
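S3 HeLa stable clones carrying a lamin A-EGFP splicing minigene plus DsRed2 were seeded at 600 cells/well in Opti-MEM with 2% FBS, pin-dosed and incubated 48 h at 37°C. Acumen cytometry (488 nm) gave the GFP/RFP total-intensity ratio.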
Sfp inh = inhibitors of Bacillus subtilis Sfp phosphopantetheinyl transferase. Q9F4F7. Biochemical Sfp PPTase activity, qHTS. Potency, µM, for the others: max response, negative = inhibition, most hits filed as inhibitors. actives 3.5% (n = 310,000). AID 1490; active means well fitted inhibition curve with a large enough effect; inconclusive means small, poorly fitted or top-dose-only effect, or another doubt; inactive means no such curve, though single readings can be large or run the other way;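 further: the enzyme is Sfp with the accession as filed and its product quenches rhodamine fluorescence; potency means the concentration at half of the fitted maximal effect; 0% = enzyme reaction without inhibitor and -100% = no enzyme wells; top concentration of the series not given in the record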
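After 15 min at room temperature with compound, 15 nM Sfp received 5 uM rhodamine-CoA plus 12.5 uM BHQ-2-ybbR (50 mM Hepes pH 7.6, 10 mM MgCl2). Rate came from the fluorescence difference over 30 min, ex 525/em 598 nm.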
G9a block = G9a (human) methyltransferase inhibition | Q96KQ7 | G9a H3K9 monomethylation, AlphaScreen, 2 h | AID 504332 | Potency, µM (doses to about 102 µM), inactives show at the top dose activity, negative = inhibition, actives largely listed as inhibitors | 350,000 tested, 8.8% active; further: potency means the concentration at half of the fitted maximal effect; on the % scale 0 is the no-effect control and ±100 the full control effect; nearly all actives have a fitted effect of over 75% in size
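Using a bead-based AlphaScreen, monomethylated H3K9 product from 2 h room-temperature reactions (G9a 20 nM, peptide 500 nM, SAM 20 uM) was detected with 0.5 ug/mL rabbit anti-H3K9me1 antibody.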
Starred values were filed as active, the others as inactive; ! = not active in a repeat; [ ] = remark or other dose. Shown are actives, neighbours in structure and some others; about 13% of the full set was active somewhere. Unless noted, the call rests on the fitted dose curve; in most records, active means well fitted curve in the direction sought with a large enough effect; inconclusive means small, poorly fitted or top-dose-only effect, or another doubt; inactive means no such curve, though single readings can be large; an effect the other way counts as inactive or inconclusive.

CCS(=O)(=O)c1ncc(Cl)c(C(=O)Nc2ccc(S(=O)(=O)N(C)c3ccccc3)cc2)n1 was read as miR-21 FLuc inconclusive, Sfp inh inconclusive and G9a block 39.8µM*.
`COc1ccc(C2=NC(C)(C)N(CC(=O)Nc3cccc(C)c3)C2=O)cc1` gave miR-21 FLuc 27.2% and G9a block 15.9%[59 µM].
Screening O=C(Cn1c(-c2cccs2)cc2cc(F)ccc21)NCCCN1CCN(c2ccccc2F)CC1 returned miR-21 FLuc 17.5%, LMNA splice mod inconclusive and G9a block inconclusive.
For Cc1c(C)n(C)c2ccc(C(=O)NCCCN3CCOCC3)cc12 the results were miR-21 FLuc -9.7%, Sfp inh -1.1% and G9a block -13.4%.
`Cc1c(C)n(C)c2ccc(C(=O)NCCCN3CCN(c4ccccc4F)CC3)cc12` gave miR-21 FLuc 3.6%, Sfp inh -11.4% and G9a block 44.7µM*.
For Cc1ccccc1CNC(=O)c1ccc2c(c1)c(C)c(C)n2C the results were miR-21 FLuc -13.0% and G9a block inconclusive.
`CCN(CC)c1ccc(NC(=O)c2ccc3c(c2)c(C)c(C)n3C)cc1` gave miR-21 FLuc 14.5%, ALDH1A1 block inconclusive, JMJD2E inh -24.9%, Sfp inh -11.0% and G9a block 3.16µM*.
For O=C(Cn1c(=O)c2cccn2c2ccc(F)cc21)NCCCN1CCN(c2ccccc2F)CC1 the results were miR-21 FLuc -8.3%, Sfp inh 14.8% and G9a block 44.7µM*.
Screening Cc1c(C)n(C)c2ccc(C(=O)NCCCN3CCN(c4ccc(F)cc4)CC3)cc12 returned miR-21 FLuc -1.1%, Sfp inh -11.5% and G9a block 39.8µM*.
`COc1ccccc1NC(=O)C1=C(C)Nc2nc(-c3ccco3)nn2C1c1cccc(C)c1` (stereo not drawn) gave miR-21 FLuc 17.0% and G9a block 17.4%[59 µM].

4 successive records from above, quoted:
Screening O=C(Cn1c(-c2cccs2)cc2cc(F)ccc21)NCCCN1CCN(c2ccccc2F)CC1 returned miR-21 FLuc 17.5%, LMNA splice mod inconclusive and G9a block inconclusive.
For Cc1c(C)n(C)c2ccc(C(=O)NCCCN3CCOCC3)cc12 the results were miR-21 FLuc -9.7%, Sfp inh -1.1% and G9a block -13.4%.
`Cc1c(C)n(C)c2ccc(C(=O)NCCCN3CCN(c4ccccc4F)CC3)cc12` gave miR-21 FLuc 3.6%, Sfp inh -11.4% and G9a block 44.7µM*.
For Cc1ccccc1CNC(=O)c1ccc2c(c1)c(C)c(C)n2C the results were miR-21 FLuc -13.0% and G9a block inconclusive.

Following part.
For Cn1cc(CC(=O)NCCCN2CCCC2)c2ccccc21 the results were miR-21 FLuc 1.1%, ALDH1A1 block -4.7%, JMJD2E inh -14.6%, LMNA splice mod -3.4%, Sfp inh 10.7% and G9a block 56.2µM*.
`Cc1c(C)n(Cc2ccccc2)c2ccc(C(=O)NCCCN3CCOCC3)cc12` gave miR-21 FLuc -0.3%, Sfp inh -19.1% and G9a block 50.1µM*.
For COc1ccc(OC)c(CCNC(=O)CCc2cn(C)c3ccccc23)c1 the results were miR-21 FLuc -9.2%, Sfp inh 4.7% and G9a block 70.8µM*.
Screening Cc1[nH]c2ccc(C(=O)NCCCN3CCCCC3)cc2c1C returned miR-21 FLuc -6.9%, Sfp inh 1.8% and G9a block 4.2%.
For Cc1[nH]c2ccc(C(=O)NCCN3CCCCCC3)cc2c1C the results were miR-21 FLuc -3.0%, Sfp inh -10.4% and G9a block 50.1µM*.
`COc1ccc(OC)c(CNC(=O)CCc2cn(C)c3ccccc23)c1` gave miR-21 FLuc 3.1%, Sfp inh 8.2% and G9a block inconclusive.
Cc1oc2ccc(O)c(CN(C)Cc3ccccc3)c2c1C(=O)Nc1cccc(Cl)c1C was read as miR-21 FLuc 29.3% and G9a block -0.9%[59 µM].
`CC(C)(C)c1ccc(S(=O)(=O)c2cnc(SCC(=O)Nc3ccc4c(c3)OCCO4)[nH]c2=O)cc1` gave miR-21 FLuc 1.0% and G9a block -36.0%[59 µM].
COc1cccc(/C=C/C(=O)OCC(=O)NCCc2ccccc2)c1 was read as miR-21 FLuc 0.7%, ALDH1A1 block inconclusive, JMJD2E inh inconclusive, LMNA splice mod -7.2%[46 µM], Sfp inh 9.3% and G9a block 16.8%.
Cc1c(C)n(C)c2ccc(C(=O)NCCCN3CCCC3)cc12 was read as miR-21 FLuc -1.6%, Sfp inh -1.2% and G9a block 50.1µM*.
Cc1c(C)n(C)c2ccc(C(=O)NCCCN3CCCCC3)cc12 was read as miR-21 FLuc -3.6%, Sfp inh 4.8% and G9a block inconclusive.
Cc1csc(NC(=O)c2nc3nccc(C)n3n2)n1 was read as miR-21 FLuc -42.5%, ALDH1A1 block -3.3%, JMJD2E inh -7.8%, LMNA splice mod 8.7%, Sfp inh 5.0% and G9a block 50.1µM*.
Cc1ccnc2nc(C(=O)Nc3nnc(CC(C)C)s3)nn12 was read as miR-21 FLuc -7.6%, ALDH1A1 block -1.1%, JMJD2E inh -3.7%, LMNA splice mod 16.9%, Sfp inh inconclusive and G9a block 25.1µM*.
For Cc1csc(NC(=O)c2cnc3ccccc3n2)n1 the results were miR-21 FLuc 15.2%, Sfp inh -15.1% and G9a block 44.7µM*.
For CCCCc1nnc(NC(=O)c2nc3nccc(C)n3n2)s1 the results were miR-21 FLuc -3.0%, ALDH1A1 block 4.3%, JMJD2E inh -1.9%, LMNA splice mod -20.0%[46 µM], Sfp inh -24.4% and G9a block inconclusive.
For Cc1csc(NC(=O)c2ccc3ccccc3n2)n1 the results were miR-21 FLuc -30.5%, Sfp inh -2.4% and G9a block 2.1%.
`COc1ccc(-n2c(Cc3cccn3C)nnc2SCC(=O)Nc2ccc3c(c2)OCCO3)cc1` gave miR-21 FLuc 9.0%, ALDH1A1 block 1µM*, JMJD2E inh 1.2%, LMNA splice mod 13.8%, Sfp inh 1.5% and G9a block 50.1µM*.
COc1ccc(-n2c(Cc3cccn3C)nnc2SCC(=O)Nc2ccc3c(c2)OCO3)cc1 was read as miR-21 FLuc -9.4%, ALDH1A1 block 14.1µM*, JMJD2E inh -17.6%, LMNA splice mod -1.4%, Sfp inh -9.1% and G9a block 50.1µM*.
Screening COc1cc2nc(N3CCN(C(=O)[C@@H]4COc5ccccc5O4)CC3)nc(N)c2cc1OC returned ALDH1A1 block inconclusive, JMJD2E inh inconclusive, LMNA splice mod -24.8%, Sfp inh 44.6% and G9a block inconclusive.
For COc1cc2nc(N3CCN(C(=O)OCc4ccccc4)[C@H](C(=O)NC(C)(C)C)C3)nc(N)c2cc1OC the results were Sfp inh 5.2% and G9a block 7.08µM*.
`COc1ccc(C)cc1NC(=O)C1CCCN1C(=O)OCc1ccccc1` (stereo not drawn) gave miR-21 FLuc -6.8%, ALDH1A1 block -11.1%, JMJD2E inh 0.1%, LMNA splice mod 12.5%, Sfp inh -0.3% and G9a block 7.5%[59 µM].
Screening COc1cc2nc(N3CCN(C(=O)OCc4ccccc4)C(C(=O)NC(C)(C)C)C3)nc(N)c2cc1OC (stereo not drawn) returned ALDH1A1 block inconclusive, JMJD2E inh inconclusive, LMNA splice mod inconclusive and G9a block 5.62µM*!.

Screening results (PubChem BioAssay)
